By UniProt entry, the sequences of proteins in these tests, tags left out.
UniProt P50613, whole entry: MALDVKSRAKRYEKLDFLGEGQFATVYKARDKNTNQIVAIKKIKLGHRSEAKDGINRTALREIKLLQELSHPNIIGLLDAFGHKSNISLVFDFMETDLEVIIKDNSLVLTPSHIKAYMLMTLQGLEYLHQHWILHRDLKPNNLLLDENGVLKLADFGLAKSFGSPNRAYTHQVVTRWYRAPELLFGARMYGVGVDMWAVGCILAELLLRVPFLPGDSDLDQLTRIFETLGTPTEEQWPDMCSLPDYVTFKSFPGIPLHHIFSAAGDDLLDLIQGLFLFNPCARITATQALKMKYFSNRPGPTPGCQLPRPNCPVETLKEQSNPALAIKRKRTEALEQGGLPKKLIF
UniProt P51948, whole entry partner: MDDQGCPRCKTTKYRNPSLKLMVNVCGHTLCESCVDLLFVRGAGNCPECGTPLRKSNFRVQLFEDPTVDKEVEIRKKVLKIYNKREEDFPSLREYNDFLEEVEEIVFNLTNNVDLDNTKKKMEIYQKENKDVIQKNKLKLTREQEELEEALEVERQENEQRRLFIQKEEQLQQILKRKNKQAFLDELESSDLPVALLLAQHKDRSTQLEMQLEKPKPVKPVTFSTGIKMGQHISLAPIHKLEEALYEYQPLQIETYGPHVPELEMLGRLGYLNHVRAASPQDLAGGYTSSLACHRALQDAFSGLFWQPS
UniProt P51946, whole entry partner: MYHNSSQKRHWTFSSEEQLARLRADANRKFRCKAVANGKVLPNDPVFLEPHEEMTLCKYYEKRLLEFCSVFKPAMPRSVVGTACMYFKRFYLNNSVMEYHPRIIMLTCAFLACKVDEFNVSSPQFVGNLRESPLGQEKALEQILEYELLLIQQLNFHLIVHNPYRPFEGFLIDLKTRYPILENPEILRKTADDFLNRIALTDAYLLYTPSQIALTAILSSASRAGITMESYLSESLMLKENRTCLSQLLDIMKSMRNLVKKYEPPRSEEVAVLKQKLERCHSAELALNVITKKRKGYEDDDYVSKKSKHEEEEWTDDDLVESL

According to US10106526B2, “Inhibitors of cyclin-dependent kinase 7 (CDK7)” (SYROS PHARMACEUTICALS, INC., priority 2014, dated 2018):

Tests used:
[1] = molecular target: CDK7/Cyclin H/MAT1 trimeric complex (Homo sapiens, UniProt P50613); test: CDK7 kinase assay, Caliper/LabChip EZ Reader (Biortus Biosciences); settings: read-out: CDK7 Inhibition (IC50), CDK7/Cyclin H/MAT1 10 nM, ATP 2 mM, FAM-CDK7tide 2 μM, 30 min incubation
[2] = tested on: A673 cells; test: Inhibition of proliferation of A673 cells (CyQUANT, 72 hour); settings: read-out: A673 IC50, 72 hour proliferation
Description: A673 cells are a cell line derived from human muscle Ewing's sarcoma. Representative compounds of the invention were tested at different concentrations (from 4 μM to 126.4 pM; 0.5 log serial dilutions) for their ability to inhibit the proliferation of A673 cells. Known CDK inhibitors flavopiridol and triptolide were used as positive controls. Cells were grown in Dulbecco's Modified Eagle's Medium, +10% FBS+1 mM Sodium Pyruvate. The cells were cultured at 37° C. in a humidified chamber in the presence of 5% CO2. Proliferation assays were conducted over a 72 hour time period. CyQUANT® (Life Technologies, Chicago, Ill. USA) was used to assess the anti-proliferative effects of the compounds following manufacturer's directions and utilizing the reagents supplied with the CyQUANT® kit. In this table, “A” represents an IC50 of less than 500 nM; “B” an IC50 of between 500 nM and 5 μM; and “C” an IC50 of greater than 5 μM.

| IC50 [1] [nM] | Structure (SMILES) | IC50 [2] [nM] |
| --- | --- | --- |
| < 100 | C=CC(=O)N1CCC2(CC1)CN([C@@H]1CCC[C@@H](Nc3ncc(Cl)c(-c4c[nH]c5ccccc45)n3)C1)C2 | < 500 |
| 100 to 1000 | C=CC(=O)N1CCC(CN[C@@H]2CC[C@H](Nc3ncc(Cl)c(-c4c[nH]c5ccccc45)n3)C2)CC1 | 500 to 5000 |
| < 100 | C=CC(=O)Nc1cnn([C@H]2CCC[C@@H](Nc3ncc(Cl)c(-c4c[nH]c5ccccc45)n3)C2)c1 | < 500 |
| < 100 | CN(C)C/C=C/C(=O)N1CCCN([C@H]2CCC[C@@H](Nc3ncc(Cl)c(-c4c[nH]c5ccccc45)n3)C2)CC1 | < 500 |
| < 100 | C=CC(=O)N[C@H]1CC[C@H](CN[C@@]2(C)CCC[C@@H](Nc3ncc(Cl)c(-c4c[nH]c5ccccc45)n3)C2)CC1 | < 500 |
| 100 to 1000 | CN(C)C/C=C/C(=O)N1CCN([C@H]2CCC[C@@H](Nc3ncc(Cl)c(-c4nsc5ccccc45)n3)C2)CC1 | > 5000 |
| < 100 | C=CC(=O)N[C@H]1CCCN([C@H]2CCC[C@@H](Nc3ncc(Cl)c(-c4c[nH]c5ccccc45)n3)C2)C1 | < 500 |
| 100 to 1000 | C=CC(=O)N[C@H]1CCCN([C@@H]2CCC[C@@H](Nc3ncc(Cl)c(-c4c[nH]c5ccccc45)n3)C2)C1 | < 500 |
| < 100 | C=CC(=O)NC[C@H]1C[C@H]1C(=O)N[C@H]1CCC[C@@H](Nc2ncc(Cl)c(-c3c[nH]c4ccccc34)n2)C1 | < 500 |
| < 100 | C=CC(=O)N1CCN([C@@]2(C)CCC[C@@H](Nc3ncc(Cl)c(-c4c[nH]c5ccccc45)n3)C2)CC1 | < 500 |
| 100 to 1000 | C=CC(=O)NCC1CN(C2CCCC(Nc3ncc(Cl)c(-c4c[nH]c5ccccc45)n3)C2)CCO1 (single isomer, unassigned) [335] | < 500 |
| 100 to 1000 | C=CC(=O)N1CCC(CN[C@H]2CCC[C@@H](Nc3ncc(Cl)c(-c4cn(C)c5ccccc45)n3)C2)CC1 | < 500 |
| < 100 | CN(C)C/C=C/C(=O)N1CCC2(CC1)CN([C@@H]1CCC[C@@H](Nc3ncc(Cl)c(-c4c[nH]c5ccccc45)n3)C1)C2 | < 500 |
| 100 to 1000 | C=CC(=O)N1CCN([C@H]2CCC[C@@H](Nc3ncc(Cl)c(-c4nsc5ccccc45)n3)C2)CC1 | < 500 |

Continued, molecule first:

| Structure (SMILES) | IC50 [1] [nM] | IC50 [2] [nM] |
| --- | --- | --- |
| CN(C)C/C=C/C(=O)Nc1ccc(C(=O)N[C@H]2CCC[C@@H](Nc3ncc(Cl)c(-n4cnc5ccccc54)n3)C2)nc1 | < 100 | < 500 |
| C=CC(=O)N1CCC(OC[C@H]2CCC[C@@H](Nc3ncc(Cl)c(-c4c[nH]c5ccccc45)n3)C2)CC1 | 100 to 1000 | < 500 |
| C=CC(=O)N1CCC2(CC1)CC(CN[C@H]1CCC[C@@H](Nc3ncc(Cl)c(-c4c[nH]c5ccccc45)n3)C1)C2 | < 100 | < 500 |
| CON(C)C/C=C/C(=O)N1CCN([C@H]2CCC[C@@H](Nc3ncc(Cl)c(-c4c[nH]c5ccccc45)n3)C2)CC1 | 100 to 1000 | < 500 |
| CN(C)C/C=C/C(=O)NCC1CN([C@@H]2CCC[C@@H](Nc3ncc(Cl)c(-c4c[nH]c5ccccc45)n3)C2)CCO1 (stereo partly drawn) | 100 to 1000 | < 500 |
| CN(C)C/C=C/C(=O)N1CCC2(CC1)CN([C@H]1CCC[C@@H](Nc3ncc(Cl)c(-c4c[nH]c5ccccc45)n3)C1)C2 | < 100 | < 500 |
| CN(C)C/C=C/C(=O)NC[C@H]1C[C@@H]1C(=O)N[C@H]1CCC[C@@H](Nc2ncc(Cl)c(-c3c[nH]c4ccccc34)n2)C1 | < 100 | < 500 |
| CN(C)C/C=C/C(=O)N1CC2(CCN([C@@H]3CCC[C@@H](Nc4ncc(Cl)c(-c5c[nH]c6ccccc56)n4)C3)C2)C1 | < 100 | < 500 |
| C=CC(=O)N1CCC(CN[C@H]2CCC[C@@H](Nc3ncc(C(F)(F)F)c(-c4c[nH]c5ccccc45)n3)C2)CC1 | < 100 | < 500 |
| CN(C)C/C=C/C(=O)N1CCN([C@@H]2CCC[C@@H](Nc3ncc(Cl)c(-c4c[nH]c5ccccc45)n3)C2)CC1C(F)(F)F (stereo partly drawn) | 100 to 1000 | < 500 |
| C=CC(=O)N1CCC(N(CC)C[C@H]2CCC[C@@H](Nc3ncc(Cl)c(-c4c[nH]c5ccccc45)n3)C2)CC1 | < 100 | < 500 |
| C=CC(=O)Nc1cnc(CN[C@H]2CCC[C@@H](Nc3ncc(Cl)c(-c4c[nH]c5ccccc45)n3)C2)nc1 | < 100 | < 500 |
| C=CC(=O)N1CCN([C@H]2CCC[C@@H](Nc3ncc(Cl)c(-c4coc5ccccc45)n3)C2)CC1 | < 100 | < 500 |
| C=CC(=O)N1CCC(CN[C@H]2CCC[C@@H](Nc3ncc(C(F)(F)F)c(-c4c[nH]c5ccccc45)n3)C2)C1 (stereo partly drawn) | < 100 | < 500 |
| C=CC(=O)N1CC(CN[C@H]2CCC[C@@H](Nc3ncc(Cl)c(-c4c[nH]c5ccccc45)n3)C2)C1 | < 100 | < 500 |
| CN(C)C/C=C/C(=O)N1CCC(CN[C@H]2CCC[C@@H](Nc3ncc(Cl)c(-c4n[nH]c5ccccc45)n3)C2)C1 (stereo partly drawn) | < 100 | < 500 |

| Structure (SMILES) | IC50 [1] [nM] | IC50 [2] [nM] |
| --- | --- | --- |
| CN(C)C/C=C/C(=O)N1CCN([C@H]2CCC[C@@H](Nc3ncc(Cl)c(-c4csc5ccccc45)n3)C2)CC1 | 100 to 1000 | < 500 |
| C=CC(=O)N1CCN([C@H]2CCC[C@@H](Nc3ncc(Cl)c(C4C(=O)Nc5ccccc54)n3)C2)CC1 (stereo partly drawn) | > 1000 | > 5000 |
| CN(C)C/C=C/C(=O)N1CCN([C@H]2CCC[C@@H](Nc3ncc(Cl)c(-c4c[nH]c5ccccc45)n3)C2)CC1C(F)(F)F (stereo partly drawn) | < 100 | < 500 |
| C=CC(=O)N1CCN([C@H]2CCC[C@@H](Nc3ncc(Cl)c(-c4c[nH]c5c(C)cccc45)n3)C2)CC1 | < 100 | < 500 |
| CN(C)C/C=C/C(=O)N1CCC2(C1)CN([C@H]1CCC[C@@H](Nc3ncc(Cl)c(-c4c[nH]c5ccccc45)n3)C1)C2 | < 100 | < 500 |
| C=CC(=O)N1CCN([C@@H]2CC[C@H](Nc3ncc(Cl)c(-c4c[nH]c5ccccc45)n3)C2)CC1 | < 100 | < 500 |
| C=CC(=O)N1CCN([C@H]2CCC[C@@H](Nc3ncc(CC)c(-c4c[nH]c5ccccc45)n3)C2)CC1 | < 100 | < 500 |
| C=CC(=O)N1CCN([C@H]2CCC[C@@H](Nc3ncc(Cl)c(-n4cnc5ccccc54)n3)C2)CC1 | 100 to 1000 | < 500 |
| C=CC(=O)Nc1ccc(C(=O)N[C@H]2CCC[C@@H](Nc3ncc(Cl)c(-c4cccc5c4ccn5C)n3)C2)nc1 | 100 to 1000 | < 500 |
| CN(C)C/C=C/C(=O)N1CC[C@@H](N(C)[C@H]2CCC[C@@H](Nc3ncc(Cl)c(-c4c[nH]c5ccccc45)n3)C2)C1 | < 100 | < 500 |
| C=CC(=O)N1CCC(N[C@H]2CCC[C@@H](Nc3ncc(Cl)c(-c4c[nH]c5ccccc45)n3)C2)CC1 | < 100 | < 500 |
| CN(C)C/C=C/C(=O)N1CC2(CCN([C@H]3CCC[C@@H](Nc4ncc(Cl)c(-c5c[nH]c6ccccc56)n4)C3)C2)C1 | 100 to 1000 | < 500 |
| CN(C)C/C=C/C(=O)NCC1CN([C@H]2CCC[C@@H](Nc3ncc(Cl)c(-c4c[nH]c5ccccc45)n3)C2)CCO1 (stereo partly drawn) | < 100 | < 500 |
| CN(C)C/C=C/C(=O)N1CC[C@H](N(C)[C@H]2CCC[C@@H](Nc3ncc(Cl)c(-c4c[nH]c5ccccc45)n3)C2)C1 | < 100 | < 500 |
| C=CC(=O)N1CCC(CN[C@]2(C)CCC[C@H](Nc3ncc(Cl)c(-c4cnn5ccccc45)n3)C2)CC1 | 100 to 1000 | < 500 |
